What was measured:
[1] = tested on: mononuclear phagocyte; experiment: carbon particle clearance test, phagocytotic activity of mononuclear phagocyte; type: in vivo, BALB/c mice; design: key: α = (cube root of K)×(body weight ÷ liver+spleen weight); conditions: IFN-γ and IL-2 groups 3×10^5 IU/kg/day, X ± SD
Procedure: On the next day after the last test substance administration (day 16), the mice were injected with […] body weight India ink (5 times dilution with normal saline) from the tail vein.
One minute and five minutes after Indian ink injection, 20 μl blood was obtained from the eye can thus with a heparinized tubing. The blood was mixed with 2 ml 0.1% w/v Na2CO3 and then OD680nm obtained. The outline clear index K was calculated by the following formula: K=(lgA1−lgA2)÷(t2−t1) Key: A1: OD680nm at first minute A2: OD680nm at fifth minute t2: 5 minutes […]
(§1) One day after the last test substance administration (day 16), the liver, spleen, and thymus gland were separated and blotted dry with filter paper and weighed. The phagocytosis index α was calculated as below: α=(^3√K)(W÷WLS) key: W: body weight WLS: weight of liver plus spleen Thymus gland index(%)=(thymus weight/body weight)×100% Spleen index(%)=(spleen weight/body weight)×100%

[2] = immunity organ weight test (thymus gland index, spleen index); type: in vivo, BALB/c mice; conditions: IFN-γ and IL-2 groups 3×10^5 IU/kg/day, X ± SD
Procedure: The above substances were all dissolved in 0.5 ml saline and injected intraperitoneal (i.p.) for 15 continuous days, once per day.
as §1

[3] = peptide 0.5 μg/kg/day i.p. 15 days
[4] = peptide 5 μg/kg/day i.p. 15 days
[5] = peptide 50 μg/kg/day i.p. 15 days
[6] = peptide 500 μg/kg/day i.p. 15 days

## IL-2: recombinant human interleukin-2, Shanghai Huaxin Biotech Inc.; positive control immunostimulant
[1]; [3]
  phagocytotic index: 5.7 ± 0.8
[1]; [4]
  phagocytotic index: 5.7 ± 0.8
[1]; [5]
  phagocytotic index: 5.7 ± 0.8
[1]; [6]
  phagocytotic index: 5.7 ± 0.8
[2]; [3]
  weight of spleen (spleen index): 0.62 ± 0.07%
  weight of thymus gland (thymus gland index): 0.14 ± 0.04%
[2]; [4]
  weight of thymus gland (thymus gland index): 0.14 ± 0.04%
[2]; [5]
  weight of spleen (spleen index): 0.62 ± 0.07%
  weight of thymus gland (thymus gland index): 0.14 ± 0.04%
[2]; [6]
  weight of thymus gland (thymus gland index): 0.14 ± 0.03%
